From paper PMC6009858, “Tricyclic coumarin sulphonate derivatives with alkaline phosphatase inhibitory effects: in vitro and docking studies” (Journal of Enzyme Inhibition and Medicinal Chemistry, 2018)

Protein sequences, listed by entry. Tags and fused reporters are not part of them. Residues count along the entry.
UniProt P09923, 20-528 limits assumed: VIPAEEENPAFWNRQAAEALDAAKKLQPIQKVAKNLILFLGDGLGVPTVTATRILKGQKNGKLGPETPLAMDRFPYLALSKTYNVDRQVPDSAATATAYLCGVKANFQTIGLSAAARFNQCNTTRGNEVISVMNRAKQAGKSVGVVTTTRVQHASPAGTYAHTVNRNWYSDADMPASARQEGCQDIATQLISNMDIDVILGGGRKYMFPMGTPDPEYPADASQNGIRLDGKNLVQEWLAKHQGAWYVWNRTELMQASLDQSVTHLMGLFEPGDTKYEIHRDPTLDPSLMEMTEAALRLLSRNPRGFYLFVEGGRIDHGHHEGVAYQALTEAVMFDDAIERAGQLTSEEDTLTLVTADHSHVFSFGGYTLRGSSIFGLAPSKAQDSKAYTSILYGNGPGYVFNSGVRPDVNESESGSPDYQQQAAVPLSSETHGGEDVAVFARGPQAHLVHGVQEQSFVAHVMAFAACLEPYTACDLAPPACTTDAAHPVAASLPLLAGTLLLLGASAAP
UniProt P05186, 18-524 limits assumed: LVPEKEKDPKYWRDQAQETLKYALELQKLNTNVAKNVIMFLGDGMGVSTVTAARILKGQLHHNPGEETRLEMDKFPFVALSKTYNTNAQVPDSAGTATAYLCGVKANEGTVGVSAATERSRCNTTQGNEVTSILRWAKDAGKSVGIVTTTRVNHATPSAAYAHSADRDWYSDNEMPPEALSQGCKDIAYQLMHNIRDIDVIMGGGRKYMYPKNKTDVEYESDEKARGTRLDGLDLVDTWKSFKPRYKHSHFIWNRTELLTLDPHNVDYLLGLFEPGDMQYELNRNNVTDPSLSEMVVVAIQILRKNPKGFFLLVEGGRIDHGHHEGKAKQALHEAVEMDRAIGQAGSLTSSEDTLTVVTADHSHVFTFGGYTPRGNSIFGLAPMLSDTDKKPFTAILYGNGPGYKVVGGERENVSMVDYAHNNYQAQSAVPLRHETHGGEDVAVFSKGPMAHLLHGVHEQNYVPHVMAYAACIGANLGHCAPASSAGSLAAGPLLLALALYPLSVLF

How the values were obtained:
[1] = molecular target: human intestinal alkaline phosphatase (h-IAP) (Homo sapiens, UniProt P09923); assay: Alkaline phosphatase inhibition assay (h-IAP), CDP-star luminescence; details: read-out: IC50 (µM) ± SEM h-IAP, n = 3, DEA buffer
[2] = molecular target: human tissue nonspecific alkaline phosphatase (h-TNAP) (Homo sapiens, UniProt P05186); assay: Alkaline phosphatase inhibition assay (h-TNAP), CDP-star luminescence; assay type: biochemical; details: read-out: IC50 (µM) ± SEM h-TNAP, n = 3, DEA buffer

`CC(C)(C)c1ccc(S(=O)(=O)Oc2ccc3c4c(c(=O)oc3c2)CCCCC4)cc1` gave an IC50 [1] of 3.92 µM and an IC50 [2] of 6.33 µM.

For `CC(C)(C)c1ccc(S(=O)(=O)Oc2ccc3c4c(c(=O)oc3c2)CCCCCC4)cc1`, the IC50 [1] was 1.28 µM and the IC50 [2] was 1.85 µM.

For `O=c1oc2cc(OS(=O)(=O)c3ccc(C(F)(F)F)cc3)ccc2c2c1CCCCC2`, the IC50 [1] was 2.64 µM and the IC50 [2] was 1.59 µM.
